Here are results for one substance from PMC10080687, “Tautomer-Specific Deacylation and Ω-Loop Flexibility Explain the Carbapenem-Hydrolyzing Broad-Spectrum Activity of the KPC-2 β-Lactamase” (Journal of the American Chemical Society, 2023).

The subject of series [1] is CC(=O)OCC1=C(C(=O)O)N2C(=O)[C@@H](NC(=O)Cc3cccs3)[C@H]2SC1. Briefly: purified protein. Particulars: acylates Ser70.
In series [2] the test system is CC1(C)S[C@@H]2[C@H](NC(=O)[C@H](N)c3ccccc3)C(=O)N2[C@H]1C(=O)O. Briefly: purified protein. The following applies: acylates Ser70.

Take KPC-2 (Klebsiella pneumoniae): the kcat/Km (commonly the second-order rate constant that governs catalysis at low substrate concentration) in series [1] was determined as 2.7e+06 M⁻¹ s⁻¹. In series [2], the Km (usually the substrate concentration at which the rate is half of its maximum) came out at 270 µM; the turnover number (kcat) – broadly, the number of substrate molecules converted per active site and unit of time at saturation – came out at 82 s⁻¹; the catalytic efficiency (kcat/Km) is 300000 M⁻¹ s⁻¹.
